Reference: PMC12024814, “Ruthenium(II)–Arene Complexes with a 2,2′-Bipyridine Ligand as Anti-Aβ Agents” (Biomolecules, 2025)

Legend:
HSA = details: cited from earlier work
[1] = Aqueous stability by 1H NMR (DMSO-D6/D2O, 37 °C); type: physicochemical; details: DMSO-D6 in D2O
Method: A common step in the mechanism of action for most metal-based drugs is ligand exchange around the metal center. This promotes the coordination of the complex to the penultimate biological target, eliciting the desired response. […] Therefore, to evaluate the relative stability of the prepared complexes, ^1H NMR studies were performed. Following complete dissolution of the complexes in deuterated DMSO, dilution using D2O to a final DMSO concentration of 25% provided aqueous samples that were measured following prolonged incubation at 37 °C.
For the majority of the complexes, new signals emerged in close proximity to those of the parent complex, even without any incubation. […] A previously study monitoring ligand exchange for RuB in the presence of several proteins saw that neither the arene ring nor the 2,2-bipyridine ligands were lost, but rather the labile monodentate chloride ligand was replaced.

| Substance | log K (binding to HSA) (HSA) | DMSO necessary to maintain solubility [1] [%] |
| --- | --- | --- |
| indomethacine | 5.31 | – |
| [Ru(η^6-p-cymene)(4,4′-di-tert-butyl-2,2′-bipyridine)Cl]PF6 [RuBtB] | – | 75 |
